Measured values reported in US9993554B2 (CENTRO NACIONAL DE INVESTIGACIONES ONCOLOGICAS (CNIO), priority 2010, dated 2018).

Tested on: phospho-Ser-473-Akt
Experiment: AKT phosphorylation inhibition, Western blot cell assay
Details: read-out: IC50 of AKT Phosphorylation Inhibition, p-AKT cell; cell assay procedure

IC50: 8 nM
SMILES: CS(=O)(=O)N1CCN(Cc2cn3cc(-c4cnc(N)nc4)nc(N4CCOCC4)c3n2)CC1
